Experimental data published in PMC5225454, “A Comprehensive Evaluation of the Activity and Selectivity Profile of Ligands for RGD-binding Integrins” (Scientific Reports, 2017).

The chains behind the UniProt entries cited, without tags or fusion partners. Residues count along the entry.
UniProt P06756, 31-1048: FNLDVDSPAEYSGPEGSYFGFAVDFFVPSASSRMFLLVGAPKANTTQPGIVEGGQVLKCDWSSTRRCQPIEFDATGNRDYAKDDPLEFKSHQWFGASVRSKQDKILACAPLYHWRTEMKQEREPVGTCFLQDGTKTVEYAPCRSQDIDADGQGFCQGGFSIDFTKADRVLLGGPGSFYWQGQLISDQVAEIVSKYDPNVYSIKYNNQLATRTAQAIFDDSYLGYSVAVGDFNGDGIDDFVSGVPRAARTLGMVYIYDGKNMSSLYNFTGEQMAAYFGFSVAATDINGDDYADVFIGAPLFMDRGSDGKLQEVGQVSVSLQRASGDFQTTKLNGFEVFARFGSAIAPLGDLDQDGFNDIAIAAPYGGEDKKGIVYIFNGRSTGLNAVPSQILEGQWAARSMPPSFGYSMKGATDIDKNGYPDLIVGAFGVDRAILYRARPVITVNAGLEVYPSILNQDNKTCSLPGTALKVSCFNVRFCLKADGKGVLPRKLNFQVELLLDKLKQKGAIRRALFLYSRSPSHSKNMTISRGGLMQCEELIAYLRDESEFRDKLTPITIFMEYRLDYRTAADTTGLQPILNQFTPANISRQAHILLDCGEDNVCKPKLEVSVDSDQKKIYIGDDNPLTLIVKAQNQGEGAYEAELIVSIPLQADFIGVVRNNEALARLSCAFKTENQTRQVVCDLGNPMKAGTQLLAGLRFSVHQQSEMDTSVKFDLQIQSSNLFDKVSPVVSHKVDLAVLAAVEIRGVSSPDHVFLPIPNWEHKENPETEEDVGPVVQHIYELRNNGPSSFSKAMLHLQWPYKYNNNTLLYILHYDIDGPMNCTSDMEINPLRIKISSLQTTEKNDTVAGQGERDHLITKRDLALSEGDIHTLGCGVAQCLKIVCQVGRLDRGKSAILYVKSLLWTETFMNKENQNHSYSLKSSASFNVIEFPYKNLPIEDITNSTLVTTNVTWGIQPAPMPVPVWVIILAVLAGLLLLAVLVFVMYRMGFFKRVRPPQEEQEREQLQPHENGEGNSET
UniProt P06756, 31-992 limits assumed: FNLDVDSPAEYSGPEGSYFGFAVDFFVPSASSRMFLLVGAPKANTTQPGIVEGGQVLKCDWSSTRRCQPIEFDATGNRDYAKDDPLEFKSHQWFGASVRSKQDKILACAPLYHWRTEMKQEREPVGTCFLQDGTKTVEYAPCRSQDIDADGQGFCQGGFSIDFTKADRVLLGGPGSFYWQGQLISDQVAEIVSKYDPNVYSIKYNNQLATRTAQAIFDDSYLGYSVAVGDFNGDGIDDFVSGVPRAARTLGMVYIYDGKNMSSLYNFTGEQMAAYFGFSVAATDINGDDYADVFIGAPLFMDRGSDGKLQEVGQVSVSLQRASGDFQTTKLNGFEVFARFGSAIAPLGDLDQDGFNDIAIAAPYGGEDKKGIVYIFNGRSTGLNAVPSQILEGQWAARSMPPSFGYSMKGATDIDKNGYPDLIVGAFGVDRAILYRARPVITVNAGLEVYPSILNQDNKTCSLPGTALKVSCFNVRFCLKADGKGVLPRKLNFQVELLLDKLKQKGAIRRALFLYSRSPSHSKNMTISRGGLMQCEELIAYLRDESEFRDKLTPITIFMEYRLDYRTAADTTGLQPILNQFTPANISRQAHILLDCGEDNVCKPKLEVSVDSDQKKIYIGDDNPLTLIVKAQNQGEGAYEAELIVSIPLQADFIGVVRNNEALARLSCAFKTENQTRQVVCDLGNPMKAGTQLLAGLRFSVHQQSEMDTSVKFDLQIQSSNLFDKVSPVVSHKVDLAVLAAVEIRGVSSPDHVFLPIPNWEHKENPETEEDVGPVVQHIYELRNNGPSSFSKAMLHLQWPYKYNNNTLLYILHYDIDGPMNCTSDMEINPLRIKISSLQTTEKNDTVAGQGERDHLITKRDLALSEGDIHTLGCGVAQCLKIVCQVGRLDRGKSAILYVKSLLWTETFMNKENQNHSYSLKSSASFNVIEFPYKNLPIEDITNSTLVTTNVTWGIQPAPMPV
UniProt P18084, 24-799: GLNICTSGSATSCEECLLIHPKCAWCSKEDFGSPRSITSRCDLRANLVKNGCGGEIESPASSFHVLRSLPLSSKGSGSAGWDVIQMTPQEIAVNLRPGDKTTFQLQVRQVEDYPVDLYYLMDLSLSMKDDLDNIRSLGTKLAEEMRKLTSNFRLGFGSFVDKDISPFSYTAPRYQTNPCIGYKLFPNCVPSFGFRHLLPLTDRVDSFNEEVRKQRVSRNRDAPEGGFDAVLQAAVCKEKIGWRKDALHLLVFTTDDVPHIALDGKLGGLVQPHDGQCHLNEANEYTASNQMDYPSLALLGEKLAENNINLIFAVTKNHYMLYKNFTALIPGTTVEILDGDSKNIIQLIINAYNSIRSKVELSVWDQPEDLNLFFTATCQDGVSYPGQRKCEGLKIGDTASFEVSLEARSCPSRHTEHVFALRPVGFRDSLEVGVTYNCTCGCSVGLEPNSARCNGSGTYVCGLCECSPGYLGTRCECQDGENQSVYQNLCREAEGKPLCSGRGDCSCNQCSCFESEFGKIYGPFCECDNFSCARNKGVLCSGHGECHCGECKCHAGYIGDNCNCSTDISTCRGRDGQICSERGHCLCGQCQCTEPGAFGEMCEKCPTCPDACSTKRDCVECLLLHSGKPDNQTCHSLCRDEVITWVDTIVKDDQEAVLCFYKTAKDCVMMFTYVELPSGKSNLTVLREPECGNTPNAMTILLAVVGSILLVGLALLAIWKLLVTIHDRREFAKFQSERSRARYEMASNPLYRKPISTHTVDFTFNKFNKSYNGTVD
UniProt P26012, 43-684 limits assumed: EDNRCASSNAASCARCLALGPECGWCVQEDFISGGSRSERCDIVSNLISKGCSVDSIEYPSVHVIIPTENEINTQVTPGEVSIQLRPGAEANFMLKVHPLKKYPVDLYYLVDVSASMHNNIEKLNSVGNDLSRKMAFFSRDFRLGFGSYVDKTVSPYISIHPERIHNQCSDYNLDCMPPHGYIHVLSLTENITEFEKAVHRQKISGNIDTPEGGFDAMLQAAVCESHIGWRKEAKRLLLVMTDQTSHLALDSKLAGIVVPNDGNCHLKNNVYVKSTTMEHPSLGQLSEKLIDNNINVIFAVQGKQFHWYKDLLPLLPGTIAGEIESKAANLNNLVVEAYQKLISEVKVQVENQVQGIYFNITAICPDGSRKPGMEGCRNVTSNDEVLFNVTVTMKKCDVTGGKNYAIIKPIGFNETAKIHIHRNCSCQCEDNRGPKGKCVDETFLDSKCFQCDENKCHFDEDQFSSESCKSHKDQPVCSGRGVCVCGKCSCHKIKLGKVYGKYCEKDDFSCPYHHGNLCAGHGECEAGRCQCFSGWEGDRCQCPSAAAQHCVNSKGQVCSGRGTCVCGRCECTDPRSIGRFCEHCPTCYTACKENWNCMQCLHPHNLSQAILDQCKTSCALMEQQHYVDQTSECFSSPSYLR
UniProt P05106, 27-718 limits assumed: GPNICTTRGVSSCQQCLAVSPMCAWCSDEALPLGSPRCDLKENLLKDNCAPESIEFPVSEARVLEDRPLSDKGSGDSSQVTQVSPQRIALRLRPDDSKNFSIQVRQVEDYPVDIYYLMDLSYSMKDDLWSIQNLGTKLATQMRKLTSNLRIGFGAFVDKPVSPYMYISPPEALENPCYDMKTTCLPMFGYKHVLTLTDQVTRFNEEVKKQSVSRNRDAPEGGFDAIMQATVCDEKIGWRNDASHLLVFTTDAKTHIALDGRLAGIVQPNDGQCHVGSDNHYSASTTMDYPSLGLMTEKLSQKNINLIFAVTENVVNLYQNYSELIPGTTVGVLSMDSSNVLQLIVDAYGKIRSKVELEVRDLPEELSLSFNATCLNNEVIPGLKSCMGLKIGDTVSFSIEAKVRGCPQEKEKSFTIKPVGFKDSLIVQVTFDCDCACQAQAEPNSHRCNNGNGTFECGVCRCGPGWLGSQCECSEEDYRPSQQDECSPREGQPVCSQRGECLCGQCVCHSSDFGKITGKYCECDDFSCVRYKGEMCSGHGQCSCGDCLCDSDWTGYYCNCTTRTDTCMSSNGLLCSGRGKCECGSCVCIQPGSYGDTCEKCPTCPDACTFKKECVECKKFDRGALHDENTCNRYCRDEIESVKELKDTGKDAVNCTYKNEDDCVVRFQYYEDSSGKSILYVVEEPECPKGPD
UniProt P05106, 27-788: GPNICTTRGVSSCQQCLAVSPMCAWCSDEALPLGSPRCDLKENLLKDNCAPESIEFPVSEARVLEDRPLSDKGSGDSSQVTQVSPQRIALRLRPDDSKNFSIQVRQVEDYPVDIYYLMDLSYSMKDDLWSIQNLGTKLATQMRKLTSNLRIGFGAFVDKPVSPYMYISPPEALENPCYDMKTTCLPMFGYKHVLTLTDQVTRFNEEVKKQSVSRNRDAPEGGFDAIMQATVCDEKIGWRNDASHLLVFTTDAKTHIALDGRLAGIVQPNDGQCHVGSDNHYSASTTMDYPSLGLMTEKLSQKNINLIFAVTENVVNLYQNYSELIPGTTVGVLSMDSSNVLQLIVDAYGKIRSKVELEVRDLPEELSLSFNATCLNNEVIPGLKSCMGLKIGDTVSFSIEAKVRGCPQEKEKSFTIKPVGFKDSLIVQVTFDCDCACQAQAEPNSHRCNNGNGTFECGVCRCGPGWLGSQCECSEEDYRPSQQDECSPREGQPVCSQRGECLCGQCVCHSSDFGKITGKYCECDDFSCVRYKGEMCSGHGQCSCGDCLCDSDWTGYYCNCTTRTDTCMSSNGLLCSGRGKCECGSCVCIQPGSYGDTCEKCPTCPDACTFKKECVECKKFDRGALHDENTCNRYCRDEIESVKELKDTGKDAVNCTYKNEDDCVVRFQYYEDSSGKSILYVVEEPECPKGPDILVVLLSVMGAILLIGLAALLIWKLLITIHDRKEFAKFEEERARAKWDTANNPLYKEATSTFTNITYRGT
UniProt P18564, 22-707 limits assumed: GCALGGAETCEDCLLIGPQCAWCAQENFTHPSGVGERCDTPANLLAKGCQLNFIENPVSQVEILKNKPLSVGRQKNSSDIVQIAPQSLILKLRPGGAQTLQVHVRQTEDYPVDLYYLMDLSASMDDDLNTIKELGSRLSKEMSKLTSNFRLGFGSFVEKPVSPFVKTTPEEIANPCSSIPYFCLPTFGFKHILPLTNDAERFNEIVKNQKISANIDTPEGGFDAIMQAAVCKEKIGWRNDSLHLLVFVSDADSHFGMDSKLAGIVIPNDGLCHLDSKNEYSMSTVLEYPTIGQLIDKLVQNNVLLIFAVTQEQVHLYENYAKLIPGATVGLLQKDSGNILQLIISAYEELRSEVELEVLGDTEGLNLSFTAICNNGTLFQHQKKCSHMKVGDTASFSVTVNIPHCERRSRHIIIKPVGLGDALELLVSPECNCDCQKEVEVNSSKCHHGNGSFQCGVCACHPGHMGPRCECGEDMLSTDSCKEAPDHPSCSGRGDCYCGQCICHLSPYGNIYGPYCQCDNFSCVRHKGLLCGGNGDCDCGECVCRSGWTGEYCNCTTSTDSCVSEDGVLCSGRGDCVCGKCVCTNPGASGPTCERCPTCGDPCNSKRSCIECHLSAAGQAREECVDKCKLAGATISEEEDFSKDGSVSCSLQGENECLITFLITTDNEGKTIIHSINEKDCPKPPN
UniProt P08514, 32-1039: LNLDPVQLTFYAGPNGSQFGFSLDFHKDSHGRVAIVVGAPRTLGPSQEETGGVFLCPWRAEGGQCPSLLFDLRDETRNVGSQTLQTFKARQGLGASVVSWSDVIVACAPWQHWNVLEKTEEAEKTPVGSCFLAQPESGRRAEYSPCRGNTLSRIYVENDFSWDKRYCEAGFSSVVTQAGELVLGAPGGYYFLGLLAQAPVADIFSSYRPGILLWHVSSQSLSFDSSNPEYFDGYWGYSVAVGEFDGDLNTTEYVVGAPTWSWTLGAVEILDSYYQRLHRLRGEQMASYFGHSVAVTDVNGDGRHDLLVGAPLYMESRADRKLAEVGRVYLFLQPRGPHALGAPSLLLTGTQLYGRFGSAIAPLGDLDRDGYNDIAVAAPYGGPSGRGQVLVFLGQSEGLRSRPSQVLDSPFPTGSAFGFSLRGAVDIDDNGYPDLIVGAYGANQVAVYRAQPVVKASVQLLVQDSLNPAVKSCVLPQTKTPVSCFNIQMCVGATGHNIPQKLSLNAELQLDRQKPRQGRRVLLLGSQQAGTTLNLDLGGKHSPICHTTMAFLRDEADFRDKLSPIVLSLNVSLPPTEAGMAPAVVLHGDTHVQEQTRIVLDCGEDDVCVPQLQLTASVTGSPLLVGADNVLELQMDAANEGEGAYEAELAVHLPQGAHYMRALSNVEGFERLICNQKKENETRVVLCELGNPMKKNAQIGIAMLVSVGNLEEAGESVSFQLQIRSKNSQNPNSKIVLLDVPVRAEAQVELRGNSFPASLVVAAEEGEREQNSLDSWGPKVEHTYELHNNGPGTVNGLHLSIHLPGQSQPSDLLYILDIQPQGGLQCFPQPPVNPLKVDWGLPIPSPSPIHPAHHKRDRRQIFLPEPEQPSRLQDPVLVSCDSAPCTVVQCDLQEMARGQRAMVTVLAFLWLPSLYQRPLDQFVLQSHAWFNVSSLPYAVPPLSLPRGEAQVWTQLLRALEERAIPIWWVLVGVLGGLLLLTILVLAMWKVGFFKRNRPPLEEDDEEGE

How the values were obtained:
Conditions in all cases: referenced to internal standard
[1] = molecular target: T1, human αvβ5-integrin (Homo sapiens, UniProt P06756+P18084); assay: ELISA-like solid-phase binding assay, soluble integrin αvβ5 vs coated vitronectin
T1 construct: purchased Millipore

[2] = molecular target: T2, human αvβ8-Integrin (Homo sapiens, UniProt P06756+P26012); assay: ELISA-like solid-phase binding assay, soluble integrin αvβ8 vs coated LAP (TGF-β)
T2 construct: purchased R&D

[3] = molecular target: T3, human αvβ3-integrin (Homo sapiens, UniProt P05106+P06756); assay: ELISA-like solid-phase binding assay, soluble integrin αvβ3 vs coated vitronectin
T3 construct: purchased R&D

[4] = molecular target: T4, human αvβ6-Integrin (Homo sapiens, UniProt P06756+P18564); assay: ELISA-like solid-phase binding assay, soluble integrin αvβ6 vs coated LAP (TGF-β)
T4 construct: purchased R&D

[5] = molecular target: T5, human platelet integrin αIIbβ3 (Homo sapiens, UniProt P05106+P08514); assay: ELISA-like solid-phase binding assay, soluble integrin αIIbβ3 vs coated fibrinogen
T5 construct: purchased VWR

## N=C(N)NCCC[C@H](NC(=O)CN)C(=O)NCC(=O)N[C@@H](CC(=O)O)C(=O)N[C@@H](CO)C(=O)O [GRGDS]
[1]
  IC50: 260 ± 42 nM
[2]
  IC50: > 10 µM
[3]
  IC50: 28 ± 3 nM
[4]
  IC50: 1480 ± 162 nM
[5]
  IC50: > 10 µM
